# Molecular target: T1, circulating MAb-StrAv conjugate (Streptomyces avidinii, UniProt P22629)
# The chains behind the UniProt entries cited, without tags or fusion partners. Residues count along the entry.
# UniProt P22629, 25-183: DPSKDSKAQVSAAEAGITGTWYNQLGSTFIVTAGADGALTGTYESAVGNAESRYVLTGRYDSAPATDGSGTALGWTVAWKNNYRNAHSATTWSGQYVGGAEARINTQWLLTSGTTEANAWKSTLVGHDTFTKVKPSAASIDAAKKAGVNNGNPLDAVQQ
# T1 construct: NR-LU-10 whole antibody (murine IgG2b), chemically conjugated via SMCC to DTT-reduced antibody; made in house
# Test: G-HSA-B clearing agent evaluation and dose ranging
# Format: in vivo, mice
substance,measurement,setting,value
G-HSA-B: human serum albumin derivatized with 12-15 galactoses and 1 to 9 biotins,clearance of MAb-StrAv from blood,"9, 5 or 2 biotins/molecule, equal protein doses","effective, rapid clearance of MAb-StrAv from blood"
same,dose giving optimal balance between blood clearance and tumor retention,9 biotins and 12-15 galactose residues per molecule,~40 microgram
same,removal of StrAv-MAb from circulation,"70 micrograms, 12-15 galactose residues and 9 biotins",effective in removing StrAv-MAb from circulation
same,dose range giving optimal tumor to background targeting,G-HSA-B with one biotin/molecule,90 to 180 micrograms

# — US6416738B1, “Pretargeting methods and compounds” (NeoRx Corporation, priority 1973, dated 2002)
